# Reference: PubChem BioAssay AID743255 (National Center for Advancing Translational Sciences (NCATS), 2014)
# Sequences of proteins named here, by UniProt entry; tags and fusion partners are left off. A change or cut given only in a name is not applied to a line headed by its entry.
# UniProt O94782: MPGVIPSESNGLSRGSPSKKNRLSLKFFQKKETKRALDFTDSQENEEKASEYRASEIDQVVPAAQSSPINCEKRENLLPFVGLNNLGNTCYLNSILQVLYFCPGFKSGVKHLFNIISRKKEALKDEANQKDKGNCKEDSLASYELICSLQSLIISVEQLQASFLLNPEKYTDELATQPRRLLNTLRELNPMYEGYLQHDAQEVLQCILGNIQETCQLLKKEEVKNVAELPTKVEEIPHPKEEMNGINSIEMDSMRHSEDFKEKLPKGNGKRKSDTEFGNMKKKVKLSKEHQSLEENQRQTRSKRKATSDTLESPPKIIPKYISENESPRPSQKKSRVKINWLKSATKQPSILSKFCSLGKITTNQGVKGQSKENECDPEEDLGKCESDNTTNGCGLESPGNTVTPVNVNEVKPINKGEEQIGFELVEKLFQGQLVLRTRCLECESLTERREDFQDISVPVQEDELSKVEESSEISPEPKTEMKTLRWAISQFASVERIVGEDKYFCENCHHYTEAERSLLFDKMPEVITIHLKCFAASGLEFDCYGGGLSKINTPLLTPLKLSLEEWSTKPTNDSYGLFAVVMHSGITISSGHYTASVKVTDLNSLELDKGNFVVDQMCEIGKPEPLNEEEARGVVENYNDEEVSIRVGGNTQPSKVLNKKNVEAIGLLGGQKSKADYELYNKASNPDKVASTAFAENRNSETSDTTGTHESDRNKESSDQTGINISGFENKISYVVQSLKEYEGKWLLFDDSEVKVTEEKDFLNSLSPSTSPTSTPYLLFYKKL
# The entries are a selection whose mix differs from that of the whole data set. Results filed as inconclusive are left out. Calls of active or inactive are those of the source. The call rests on the fitted dose curve; in most records, active means well fitted inhibition curve with a large enough effect; inconclusive means small, poorly fitted or top-dose-only effect; inactive means no such curve, though single readings can be large or run the other way.
# Molecular target: Ubiquitin carboxyl-terminal hydrolase 1 (Homo sapiens) (UniProt O94782)
# Test: Inhibitors of USP1/UAF1: Primary Screen; further: nearly all actives have a fitted effect of over 60% in size
# Conditions: recombinant USP1/UAF1, Ub-Rhodamine cleavage fluorescence; at 57.1 µM (top of the series)
# Excerpt: Deubiquitinating enzymes (DUBs) are a class of enzymes that can cleave isopeptide bond formed between the C-terminal carboxylate of ubiquitin and a lysine side-chain amino group on the target protein. Among them, ubiquitin specific proteases (USPs) constitute the largest DUB family. Human USPs are emerging as promising targets for pharmacological intervention because of their connection to a number of human diseases, including prostate, colon and breast cancer (1, 2), pediatric acute lymphoblastic leukemia (3), and familial cylindromatosis (4). The advantage of inhibiting USPs lies in the potential specificity of therapeutic intervention that can lead to better efficacy and reduce nonspecific side effects. In a collaboration between the University of Delaware and the NIH Chemical Genomics Center, a high-throughput screen assay was developed to screen for USP1/UAF1 inhibitors. This miniaturized assay has a fluorescent read-out and is used to screen the NIH Molecular Libraries Small Molecule Repository (MLSMR) in order to identify a small molecule that inhibits USP1. NIH Chemical Genomics Center [NCGC] NIH Molecular Libraries Probe Centers Network [MLPCN] MLPCN Grant: DA030552 Assay Submitter (PI): Zhihao Zhuang, University of Delaware 1. Priolo, C., et al. (2006) The isopeptidase USP2a protects human prostate cancer from apoptosis. Cancer Res 66, 8625-8632 2. Popov, N., et al. (2007) The ubiquitin-specific protease USP28 is required for MYC stability. Nat Cell Biol 9, 765-774 3. De Pitta, C., et al. (2005) A leukemia-enriched cDNA microarray platform identifies new transcripts with relevance to the biology of pediatric acute lymphoblastic leukemia. Haematologica 90, 890-898 4. Kovalenko, A., et al. (2003) The tumour suppressor CYLD negatively regulates NF-kappaB signalling by deubiquitination. Nature 424, 801-805
# 3 microliters of reagents (buffer in columns 3 and 4 as negative control and 1nM USP1/UAF1 complex in columns 1, 2, and 5-48) are dispensed into Greiner black solid bottom 1536-well assay plates. Compounds are then transferred via Kalypsys pin tool equipped with 1536-pin array (10nl slotted pins, V&P Scientific, San Diego, CA). Following an incubation step of 15 min at room temperature, 1ul of Ub-Rho substrate (150nM final concentration) is added to initiate the reaction. The plates are immediately centrifuged at 1000 rpm for 15 seconds, and subsequently transferred to a ViewLux high-throughput CCD imager (PerkinElmer) wherein kinetic measurements of fluorescence are acquired using 480 nm excitation/540 nm emission filter set (6 reads every 60 seconds, see Table 1). All reagents are diluted in an assay buffer consisting of 50mM HEPES (pH 7.8), 0.5mM EDTA, 0.1 mg/ml BSA, 1mM TCEP, and 0.01% Tween-20.
# On the % scale 0 is the no-effect control and ±100 the full control effect.
row,Structure (SMILES),"activity change, negative = inhibition"
1,CCCOP(=S)(Nc1nc(N)cc(=O)[nH]1)OCCC,inactive: -11.1%
2,Cc1ccc(NCCc2c([N+](=O)[O-])cc([N+](=O)[O-])cc2[N+](=O)[O-])cc1,inactive: -19%
3,CCOP(=O)(Nc1cccc2ccccc12)OCC,inactive: -15.9%
4,COc1cc(C2NCCC3(OCCO3)C2(C)C)cc(OC)c1OC (stereo not drawn),inactive: -18%
5,CS(=O)(=O)c1ccc(Cl)c(NC(=O)COC(=O)C(O)(c2ccccc2)c2ccccc2)c1,inactive: -20.5%
6,O=[As](O)(O)c1cccnc1,inactive: -22.3%
7,COc1cc(C(=O)NCC2(N3CCOCC3)CCCCC2)cc(Cl)c1OC(C)C,inactive: -5.97%
8,O=C(OC1CN2CCC1CC2)c1ccc(Cl)cc1 (stereo not drawn),inactive: -16.2%
9,Cc1cccc(OCC(=O)OC2CN3CCC2CC3)c1 (stereo not drawn),inactive: 0.69%
10,O=[As](O)(c1cccc(O)c1)c1cccc(O)c1,inactive: -16.8%
11,NC(=O)Nc1ccc([As](=O)(O)O)cc1,inactive: -20.6%
12,CN(C(=O)Cc1ccc(Cl)c(Cl)c1)[C@H]1CC[C@@]2(CCCO2)C[C@@H]1N1CCCC1,inactive: -24.1%
13,O=[N+]([O-])c1ccc2c(c1)nnn2O,inactive: 0.473%
14,CN(C)C(=O)c1cc([N+](=O)[O-])cc2c1-c1c(cc([N+](=O)[O-])cc1[N+](=O)[O-])C2=O,inactive: -29.9%
15,CCOP1(=S)c2c(C)nn(CCC#N)c2N=C(c2ccc(F)cc2)N1C (stereo not drawn),inactive: -14.5%
16,CN(C(=O)Cc1ccccc1)[C@@H]1CC[C@]2(CCCO2)C[C@H]1N1CCCC1,inactive: -26.7%
17,N#CCCN(C(=O)COC(=O)C(O)(c1ccccc1)c1ccccc1)c1ccc(F)cc1,inactive: -3.36%
18,CS(=O)(=O)c1cc([N+](=O)[O-])c2no[n+]([O-])c2c1,inactive: -21.9%
19,O=P(Nc1nccs1)(Oc1ccccc1)Oc1ccccc1,inactive: -9.49%
20,O=P(Nc1nccs1)(c1ccccc1)c1nc2ccccc2s1 (stereo not drawn),inactive: -3.09%
21,CCOP1(=S)c2c(C)nn(CCC#N)c2N=C(c2ccccc2F)N1C (stereo not drawn),inactive: -10.1%

row,Structure (SMILES),"activity change, negative = inhibition"
1,O=C(O)COc1ccc([As](=O)(O)O)cc1[N+](=O)[O-],inactive: -11.1%
2,Nc1ccccc1[As](=O)(O)c1ccccc1,inactive: -16.5%
3,O=P1(Nc2ncccn2)COc2ccccc2OC1,inactive: -0.27%
4,O=[As](O)(c1cccs1)c1cccs1,inactive: -22.5%
5,Cc1ccc(OCC(=O)OC2CN3CCC2CC3)cc1 (stereo not drawn),inactive: -14.5%
6,NS(=O)(=O)c1cccc(NC(=O)COC(=O)C(O)(c2ccccc2)c2ccccc2)c1,inactive: -18.8%
7,O=P1(Nc2ccc(Br)cn2)COc2ccccc2OC1,inactive: -26.1%
8,Nc1cccc([As](=O)(O)c2ccccc2)c1,inactive: -17.9%
9,Cc1ccc(C(=O)OC2CN3CCC2CC3)cc1 (stereo not drawn),inactive: -19.5%
10,CC1CCC(C(C)C)C(OP(=O)(Nc2ccccn2)c2ccccc2)C1 (stereo not drawn),inactive: -13.4%
11,Cc1nn(-c2ccccc2)c2c1P(=O)(N1CCOCC1)N(C)C(c1ccccc1)=N2 (stereo not drawn),inactive: -10.5%
12,CCCC1OP(=O)(Nc2ccccc2)OCC1CC (stereo not drawn),inactive: -12.8%
13,O=C(/C=C/c1ccccc1)OC1CN2CCC1CC2 (stereo not drawn),inactive: -2.38%
14,CN(C)C1(CNC(=O)c2ccc(S(C)(=O)=O)cc2)CCCCC1,inactive: -4.18%
15,COc1ccccc1CNC(=O)COC(=O)C(O)(c1ccccc1)c1ccccc1,inactive: -9.77%
16,CC1(CBr)Cn2c(nc3ccccc3c2=O)S1 (stereo not drawn),inactive: -25%
17,CN(C(=O)Cc1ccc(Cl)c(Cl)c1)[C@@H]1CCCC[C@H]1N1CCCC1,inactive: 13.8%
18,CC(C)/C=N\N=C(\N)N[N+](=O)[O-],inactive: -19.9%
19,CCOP(=O)(Nc1ccc(C)cn1)OCC,inactive: -24.2%
20,CN(CCCl)Cc1cc(Cl)c(NC2=NCCN2)c(Cl)c1,inactive: 22.9%
21,CCOP(=O)(NC(=NC(C)c1ccccc1)NC(C)c1ccccc1)OCC (stereo not drawn),inactive: -20.6%

row,Structure (SMILES),"activity change, negative = inhibition"
1,CCC1=CC2Cc3nc4ccc(Cl)cc4c(N)c3C(C1)C2 (stereo not drawn),inactive: -18%
2,O=P1(Nc2ccccn2)COc2ccccc2OC1,inactive: -3.32%
3,CC(C)(C)C(=O)NC(Sc1ncccn1)C(Cl)(Cl)Cl (stereo not drawn),inactive: 2.59%
4,Clc1n[nH]nc1-c1nn[nH][15n]1,inactive: -6.92%
5,O=P1(N(CCCl)CCCl)NCCC(C(F)(F)F)O1 (stereo not drawn),inactive: -24.1%
6,CCOC(=O)c1ccc(NC(=O)C(C)(CCl)SC)cc1 (stereo not drawn),inactive: 1.41%
7,CSc1ccc(Nc2c([N+](=O)[O-])cc([N+](=O)[O-])cc2[N+](=O)[O-])cc1,inactive: -8.92%
8,O=C(OC1CN2CCC1CC2)c1cccc([N+](=O)[O-])c1 (stereo not drawn),inactive: -21.2%
9,CCC(C)N(CC(C)C)C(=S)SC(NC(C)=O)C(Cl)(Cl)Cl (stereo not drawn),inactive: -23.1%
10,O=C(Nc1ccncc1[N+](=O)[O-])c1ccc([N+](=O)[O-])cc1[N+](=O)[O-],inactive: -10.7%
11,O=C(COc1ccccc1)OC1CN2CCC1CC2 (stereo not drawn),inactive: -16%
12,O=C(O)C(=O)c1ccc(N(CCCl)CCCl)cc1,inactive: -16.1%
13,CCOC(=O)Nc1cccc([As](=O)(O)O)c1,inactive: -7.5%
14,O=[N+]([O-])c1ccc(Nc2ccc(Oc3ccc([N+](=O)[O-])cc3[N+](=O)[O-])cc2)c([N+](=O)[O-])c1,inactive: -22.2%
15,Cc1cc(SC(NC=O)C(Cl)(Cl)Cl)ncn1 (stereo not drawn),inactive: -4.7%
16,O=P(Nc1ccccn1)(c1cccc2ccccc12)c1cccc2ccccc12,inactive: -29.8%
17,CC1CCNP(=O)(N(CCCl)CCCl)O1 (stereo not drawn),inactive: -10%
18,O=C(O)C(O)c1ccc(N(CCCl)CCCl)cc1 (stereo not drawn),inactive: -15.8%
19,CCOC(=O)Nc1ccc([As](=O)(O)O)c(O)c1,inactive: -14.1%
20,Cc1cc(SC(NC(=O)c2ccccc2)C(Cl)(Cl)Cl)nc(C(C)C)n1 (stereo not drawn),inactive: -3.91%
21,CCCCOc1ccc(C(=O)NCC2(N3CCCCC3)CCCCC2)cc1OC,inactive: -10.6%
